Assay results taken from patent US12472140B2, “Composition and method for transdermal delivery of cannabidiol (CBD) and tetrahydrocannabinol (THC)” (Ovation Science Inc., priority 2020, dated 2025).

Assay: Six-hour Franz Cell study of skin penetration by CBD and THC
Settings: Example 2, formulated 1:2 CBD:THC (0.34%:0.68%)

C=C(C)[C@@H]1CCC(C)=C[C@H]1c1c(O)cc(CCCCC)cc1O [CBD, cannabidiol]
CBD release relative to THC: twice
